Measurements: US4027039A (priority 1975, dated 1977)

Key:
Influenza PR 8 virus [1] = assay: Influenza PR 8 in mice, oral; schedule by table; late read day 6 (Table 37), 7 (33, 36), 8 (32, 35, 47), 10 (38); control fraction 18/20 (Table 32), 19/20 (Table 35), else 100%; type: in vivo, mouse; settings: for No. animals surviving after 6-10 days: thiosemicarbazone
Influenza PR 8 virus [2] = assay: Influenza PR 8 in mice, intravenous (Table 31); type: in vivo, mouse
Description: Dose Schedule: No pre-infection; +30, +72 post-infection.
Route of Administration: Intravenous.

Herpes virus [3] = assay: Herpes virus in chicken eggs, single dose 24 hours pre-infection; type: in vivo, chick embryo; settings: 20 μg
Influenza PR 8 virus [4] = assay: Influenza PR 8 in mice, subcutaneous; late read day 6 (Table 37), 8 (Table 47); type: in vivo, mouse
Influenza PR 8 virus [5] = assay: Influenza PR 8 in mice, drug in drinking water (Table 34); type: in vivo, mouse
Herpes virus [6] = settings: for No. animals surviving after 6-9 days: total dose .05 μg
[7] = tested on: Influenza B Massachusetts virus; assay: Influenza B Mass. in mice, oral; late read day 5 (Table 39), 7 (Table 40), 11 (Tables 61, 65); control fraction 16/20 (Table 61), else 100%; type: in vivo, mouse
Protocol: A portion of a commercially available sample of amantadine was recrystallized from isopropanol. The activity of the material against Influenza B Mass. was tested for the sample as obtained, the recrystallized portion, and the mother liquor obtained from recrystallizing the portion.

[8] = tested on: Influenza, Ann Arbor virus; assay: Influenza Ann Arbor in mice, oral; schedule by table; late read day 5 (Tables 15, 25, 29, 30), 6 (18, 20, 22, 23, 26, 27, 28, 54), 7 (14, 19, 21, 24, 53, 56), 8 (16, 17, 51), 9 (11, 55); type: in vivo, mouse

With `CCC(C)=NNC(N)=S` [2-Butanone, thiosemicarbazone, 2-butanone, thiosemicarbazone] the “No. animals surviving when 100% (or given fraction) of controls are dead” value (Influenza PR 8 virus [1]; total dose .000005 μg) was 3, the “No. animals surviving after 6-10 days” value (Influenza PR 8 virus [1]; total dose .000005 μg) was 3 and the “No. animals surviving when 100% (or given fraction) of controls are dead” value (Influenza PR 8 virus [1]; total dose .00005 μg, listed as 2-butanone thiosemicarbazone) was 3. The “No. animals surviving after 6-10 days” value (Influenza PR 8 virus [1]; total dose .0005 μg) was 3, the “No. animals surviving when 18/20 of controls are dead” value (Influenza PR 8 virus [2]; total dose 2 μg) was 3 and the Survivors (Influenza PR 8 virus [2]; total dose 2 μg) was 3. The “No. animals surviving when 18/20 of controls are dead” value (Influenza PR 8 virus [2]; total dose 20 μg) was 3, the Survivors (Influenza PR 8 virus [2]; total dose 20 μg) was 3 and the No. hatched (Herpes virus [3]) was 2. The “No. animals surviving after 6-8 days” value (Influenza PR 8 virus [4]; total dose .00005 μg) was 3, the “No. animals surviving after 6-8 days” value (Influenza PR 8 virus [4]; total dose .005 μg) was 3 and the Survivors (Influenza PR 8 virus [5]; 5 Mg/ml in water, 24 h pre and 24 h post) was 3. For the same compound, the Survivors (Influenza PR 8 virus [5]; 24 h post-infection only, second of two printed columns) was 3, the Survivors (Influenza PR 8 virus [5]; .05 Mg/ml in water, 24 h pre and 24 h post) was 3 and the Survivors (Herpes virus [6]; total dose .00005 μg) was 3. The “No. animals surviving when 100% (or given fraction) of controls are dead” value (Herpes virus [6]; total dose .005 μg) was 3 and the “No. animals surviving after 6-9 days” value (Herpes virus [6]) was 3.

With `CN1C(=O)/C(=N\NC(N)=S)c2ccccc21` [Methisazone, 1-methylindole-2,3-dione, 3-thiosemicarbazone, reference compound] the “No. animals surviving after 6-9 days” value (Herpes virus [6]) was 2.

With `N=C(N)NN` [aminoguanidine, bicarbonate] the “No. animals surviving after 7 days” value ([7]; total dose 40 pg) was 2, the “No. animals surviving after 7 days” value ([7]; total dose 400 pg) was 4 and the “No. animals surviving after 7 days” value ([7]; total dose 4 ng) was 4. For the same compound, the “No. animals surviving after 7 days” value ([7]; total dose 400 ng) was 3 and the “No. animals surviving after 7 days” value ([7]; total dose 4 μg) was 3.

`Cc1ccccc1NC(=S)NN=C1CCCC1` [cyclopentanone, 3-thio-4-o-tolyl-semicarbazone] was tested, and the Survivors ([8]; total dose 30 ng) was 1 and the “No. animals surviving after 5-7 days” value ([8]; total dose 30 μg) was 5.

`NNC(N)=O` [semicarbazide] was tested, and the activity in words (Herpes virus [6]; mouse, in vivo) was “very pronounced protection”.
